{"source": "patent US5428058A", "about": "“Phospholipase A2 inhibitors” (American Home Products Corporation, priority 1994, dated 1995)", "target": "T1, 5-lipoxygenase (Mus musculus, UniProt P48999)", "T1 construct": "Resident peritoneal macrophages were collected from female Swiss Webster mice; endogenous in cells; host or cells: resident peritoneal macrophages of female Swiss Webster mice", "T1 sequence (P48999 1-674)": "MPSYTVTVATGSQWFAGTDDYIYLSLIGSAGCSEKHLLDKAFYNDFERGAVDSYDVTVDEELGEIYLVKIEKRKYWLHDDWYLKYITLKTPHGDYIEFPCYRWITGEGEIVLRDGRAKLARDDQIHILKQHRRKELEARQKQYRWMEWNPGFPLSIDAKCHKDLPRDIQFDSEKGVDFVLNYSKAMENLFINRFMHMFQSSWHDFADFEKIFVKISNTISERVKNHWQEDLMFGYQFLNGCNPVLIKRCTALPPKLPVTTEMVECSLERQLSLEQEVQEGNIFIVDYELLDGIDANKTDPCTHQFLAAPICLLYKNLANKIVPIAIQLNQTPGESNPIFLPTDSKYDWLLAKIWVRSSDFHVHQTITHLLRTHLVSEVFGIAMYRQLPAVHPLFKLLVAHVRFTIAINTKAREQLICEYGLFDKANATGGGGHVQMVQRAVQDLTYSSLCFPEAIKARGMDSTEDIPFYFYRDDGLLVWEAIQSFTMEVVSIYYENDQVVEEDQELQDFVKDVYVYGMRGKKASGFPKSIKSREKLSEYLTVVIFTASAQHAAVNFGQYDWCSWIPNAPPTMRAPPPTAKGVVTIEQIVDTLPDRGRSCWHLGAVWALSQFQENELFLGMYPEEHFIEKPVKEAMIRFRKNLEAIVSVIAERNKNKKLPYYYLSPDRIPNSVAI", "experiment": "5-lipoxygenase inhibition (LTC4 production) in resident murine peritoneal macrophages", "type": "cell-based, mouse (Swiss Webster)", "conditions": "reference inhibitors; stimulated mouse macrophages; 95% confidence limits on next line", "procedure": "The ability of the compounds of the invention to act as inhibitors of the enzymes 5-lipoxygenase and cyclooxygenase was evaluated in the resident murine peritoneal macrophage standard pharmacological test procedure. This test procedure was carried out as follows.\nResident peritoneal macrophages were collected from female Swiss Webster mice (49 days old, 20-25 gms, Buckshire) by lavaging with 7-8 ml Hanks Balanced Salt Solution (HBSS) without Ca^++ and Mg^++ (GIBCO). The lavage fluid from several mice was pooled and centrifuged at 4° C. for 10 minutes at 400 xg. The cell pellet was resuspended in Medium 199 (GIBCO) with HEPES buffer containing 100 μg/ml gentamicin. Two ml of the cell suspension (4×10^6 cells) were then plated on 35 mm culture dishes (Nunc).\nA macrophage monolayer was established after a 1-1.5 hour incubation of the cells at 37° C. in an atmosphere of […] and 5% CO2. […]\nResidual serum and cellular debris were removed from the monolayers by washing 3× with 2 ml HBSS containing Ca^++ and Mg^++. […] In all cases, results are expressed as ng metabolite/4×10^6 cells.\nCalculations: The raw data were converted to ng metabolite/4-10^6 cells using a standard curve. Results were then expressed as percent inhibition of zymosan induced, leukotriene or prostaglandin synthesis (control) using the following equation: [formula] […]"}
{"compound": "NC1=NN(c2cccc(C(F)(F)F)c2)CC1", "note": "[BW 755c, reference compound]", "values": [{"measurement": "IC50", "result": 0.21, "unit": "µM"}]}
